# Binding of CDR-mutated scFvs to a peptide of the spike HR2 region

Reference: Engelhart et al. 2022, doi:10.1038/s41597-022-01779-4. File: FLAb, binding data.

All variants were tested on one target, the spike HR2 peptide PDVDLGDISGINAS (SARS-CoV-2).

Each scFv is VL, three GGGGS repeats, VH, as in the parent Ab-91, and differs from it in the CDRs of the heavy chain only.
VL: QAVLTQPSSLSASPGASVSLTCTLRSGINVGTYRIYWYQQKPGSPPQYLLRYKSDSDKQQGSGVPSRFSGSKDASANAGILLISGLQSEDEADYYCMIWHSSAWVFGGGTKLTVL
VH: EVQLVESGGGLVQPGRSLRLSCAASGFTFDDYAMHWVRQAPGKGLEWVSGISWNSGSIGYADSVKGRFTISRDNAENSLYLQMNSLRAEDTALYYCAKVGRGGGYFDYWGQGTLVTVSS

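The starting antibody came from a phage panning campaign against this peptide. The library (AAYL51) carries one to three amino acid substitutions per variant, with no insertions or deletions. The scFvs were displayed on barcoded MATa yeast, the peptide on MATalpha yeast. Pairs that bind mate more often; barcode pairs of the diploids are counted by sequencing. Each replicate has its own calibration line, from reference interactions of the BCL2 family. The assay was run in three technical replicates.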

Each variant is given by its three heavy chain CDRs, as the data file delimits them; those of the parent are GFTFDDYAMH, GISWNSGSIGYADSVK, VGRGGGYFDY.
Numbers give log10(Kd / nM), so 0 is 1 nM and 3 is 1 µM. Smaller is tighter.
Where no diploid with the target was found in that replicate, the entry reads "n.d.": below detection, most likely a poor binder, though not proof of it.

| # | CDR-H1 | CDR-H2 | CDR-H3 | log10 Kd, replicates | empty controls |
|---|---|---|---|---|---|
| 1 | GFTFDDYAMH | GISWNSGSIMYKDSVK | VGRQGGYFDY | n.d. / n.d. / n.d. | 1/9 (4.27) |
| 2 | GFTFDYYAMH | GIFWNSGSIGYADSVK | VGRGGGKFDY | n.d. / n.d. / n.d. | 5/9 (4.02) |
| 3 | MFTFDDGAMH | GISWNSGSIGYADSVK | VGDGGGYFDY | n.d. / n.d. / n.d. | 0/9 |
| 4 | GFTFHDYAMH | GISCNSGSIGYADSVK | VGIGGGYFDY | 3.69 / n.d. / 4.32 | 2/9 (4.56) |
| 5 | GFTFDDYAMH | GISWNSGSIGYADGVK | VGRGHGYFDY | n.d. / 5.38 / n.d. | 6/9 (4.51) |
| 6 | GFTFDDYAMH | GISWNSGSIGYLDSQK | VGRGGGPFDY | n.d. / n.d. / n.d. | 0/9 |
| 7 | GFTFDDYALH | GISWNSGKIGYADSVK | VGRGGGYFWY | 4.71 / 4.46 / 5.09 | 4/9 (5.09) |
| 8 | GFTFDDYSMH | GISWNRYSIGYADSVK | VGRGGGYFDY | 3.20 / 5.11 / 3.53 | 0/9 |
| 9 | GFTFDDYAMH | GISWNSGSIDYADSMK | VGRGGAYFDY | n.d. / n.d. / n.d. | 0/9 |
| 10 | GFTFDDYAGH | GNSWYSGSIGYADSVK | VGRGGGYFDY | n.d. / n.d. / n.d. | 0/9 |
| 11 | GFTICDGAMH | GISWNSGSIGYADSVK | VGRGGGYFDY | 2.96 / 2.98 / 3.00 | 1/9 (3.44) |
| 12 | GATFDDYAHH | GISWNSGSIGYADSVK | VVRGGGYFDY | n.d. / n.d. / n.d. | 2/9 (3.81) |
| 13 | GCTQDDYAMH | GISWNSGSIGYADSHK | VGRGGGYFDY | n.d. / n.d. / n.d. | 0/9 |
| 14 | GFTFDDYAMH | GASWNSGAIAYADSVK | VGRGGGYFDY | n.d. / n.d. / n.d. | 2/9 (3.68) |
| 15 | GFDFDDYAMH | GISWNSGSIGYAFSNK | VGRGGGYFDY | 4.31 / 4.51 / 6.23 | 8/9 (5.06) |
| 16 | GFTFDEYAMH | GISWNSGSIGYADTVK | VGSGGGYFDY | n.d. / n.d. / n.d. | 0/9 |
| 17 | GMTFDDYAIH | GISWNSGSIGTADSVK | VGRGGGYFDY | 3.91 / n.d. / n.d. | 5/9 (4.23) |
| 18 | GFTFDNYARH | GISHNSGSIGYADSVK | VGRGGGYFDY | 5.57 / 4.24 / 5.75 | 3/9 (5.89) |
| 19 | GFTSDRYAMH | GISWNSGSIGYADSVK | VGRCGGYFDY | 3.59 / 3.94 / 2.92 | 4/9 (4.72) |
| 20 | GFTFKDYAYH | GISWNSGSIGYADSSK | VGRGGGYFDY | 4.85 / 5.80 / n.d. | 2/9 (4.02) |
| 21 | WFTFDDYAMH | GISDNSDSIGYADSVK | VGRGGGYFDY | 5.57 / 5.83 / 5.61 | 5/9 (4.89) |
| 22 | GFEFDDYAMN | GISWNSGSIGYADSVK | VGRGGGYTDY | n.d. / n.d. / n.d. | 1/9 (3.96) |
| 23 | GFTFDDYAMH | WISWNSESIGYADSVK | VGRGGGYFDY | n.d. / n.d. / n.d. | 0/9 |
| 24 | GFTFDDYAMH | GISNNSGSIGYADSVK | VGRGGQYFSY | 3.47 / 3.06 / 3.32 | 4/9 (4.87) |
| 25 | GITFDDYAMH | GISWNSGSIGYADSVP | VGRGGGYFDN | 5.06 / n.d. / 4.59 | 2/9 (4.15) |
| 26 | GFTFDDYAMH | GISWLSGSIGYCDSVK | VGRGGGYFDE | n.d. / n.d. / n.d. | 0/9 |
| 27 | GFTFDDEAMH | GIRWNSGSIGYADSVK | VGRGAGYFDY | 4.35 / 5.03 / n.d. | 4/9 (5.12) |
| 28 | GFTFRDYAMH | GISWNSGSIGYADSVK | VGRGGIYVDY | 3.14 / n.d. / n.d. | 0/9 |
| 29 | GFTFDDYAMH | GISWNRGSINYADSVD | VGRGGGYFDY | n.d. / n.d. / n.d. | 2/9 (4.18) |
| 30 | GQTFDDYAMH | IIPWNSGSIGYADSVK | VGRGGGYFDY | 4.81 / 4.76 / 3.67 | 6/9 (4.59) |
| 31 | GFTFDGYAMI | GISWNCGSIGYADSVK | VGRGGGYFDY | n.d. / n.d. / n.d. | 0/9 |
| 32 | GFTFDDYAMH | GISWNSGSIGYAESVK | VGRGGHRFDY | 1.20 / 1.32 / 1.11 | 3/9 (4.86) |
| 33 | GFTFDDYAMH | GISWNSGSIPYADSVK | VGRGGMNFDY | n.d. / n.d. / n.d. | 0/9 |
| 34 | GFTFDDYNMH | GISWNSGSIGYLDSVK | VGRGGGYFDY | 4.95 / 4.45 / 5.38 | 4/9 (5.04) |
| 35 | GFTFDDYAMH | GISWVSGSIGYADSVK | VGRGGGYFWY | n.d. / 4.55 / n.d. | 0/9 |
| 36 | GFTFDDYAMH | GISWNSKSIGYADSVK | VGRGGGYFDK | 1.74 / 1.88 / 1.64 | 2/9 (4.37) |
| 37 | GFTFGDYACH | GISWNSGSIGRADSVK | VGRGGGYFDY | 3.63 / 4.57 / n.d. | 2/9 (4.35) |
| 38 | GFTLDDYAMH | GIIWNSGSIGYADSVK | VGRGWGYFDY | n.d. / n.d. / n.d. | 0/9 |
| 39 | GFDFDDYIMH | GISWNSGSIGYADIVK | VGRGGGYFDY | n.d. / 5.12 / n.d. | 2/9 (4.78) |
| 40 | GFYFDDYAEH | GISWNSGSEGYADSVK | VGRGGGYFDY | n.d. / n.d. / n.d. | 2/9 (4.53) |
| 41 | MFTFDDYAMH | GISWNSGSIGYADDWK | VGRGGGYFDY | n.d. / 5.41 / n.d. | 4/9 (3.61) |
| 42 | GFTFDDYAMH | GISWNKGSTGYADSVK | VGRLGGYFDY | 1.31 / 1.36 / 0.94 | 1/9 (3.60) |
| 43 | GFQFDDYAMH | GISWNSGSIGYADDVK | VGRGGGYFDR | 1.98 / 1.81 / 1.39 | 6/9 (4.92) |
| 44 | GFTFDQYAMH | GISWNSGSIGYADSVK | VGVGGGYFDM | n.d. / n.d. / n.d. | 0/9 |
| 45 | GFTFYDYAMH | GHSWNSGSIGYADSVK | VWRGGGYFDY | 4.11 / n.d. / n.d. | 1/9 (3.89) |
| 46 | GFTFDDYAMH | HISWNSGSIGWASSVK | VGRGGGYFDY | 4.92 / n.d. / n.d. | 3/9 (5.97) |
| 47 | GQTFDDYAMH | GICWNSGSIGYADSVK | MGRGGGYFDY | 4.63 / n.d. / n.d. | 1/9 (4.95) |
| 48 | GFTFDDYAMH | TISWNSGSIGYAPSVK | VGRGPGYFDY | 3.64 / n.d. / n.d. | 2/9 (3.86) |

6 of these entries, quoted again:

| CDR-H1 | CDR-H2 | CDR-H3 | log10 Kd, replicates | empty controls |
|---|---|---|---|---|
| GATFDDYAHH | GISWNSGSIGYADSVK | VVRGGGYFDY | n.d. / n.d. / n.d. | 2/9 (3.81) |
| GFTFDQYAMH | GISWNSGSIGYADSVK | VGVGGGYFDM | n.d. / n.d. / n.d. | 0/9 |
| WFTFDDYAMH | GISDNSDSIGYADSVK | VGRGGGYFDY | 5.57 / 5.83 / 5.61 | 5/9 (4.89) |
| GFQFDDYAMH | GISWNSGSIGYADDVK | VGRGGGYFDR | 1.98 / 1.81 / 1.39 | 6/9 (4.92) |
| GFTFDYYAMH | GIFWNSGSIGYADSVK | VGRGGGKFDY | n.d. / n.d. / n.d. | 5/9 (4.02) |
| GFTFDNYARH | GISHNSGSIGYADSVK | VGRGGGYFDY | 5.57 / 4.24 / 5.75 | 3/9 (5.89) |

As a blank, each scFv also met three strains without target: over library AAYL51, 21% of these pairings were detected, typically at 4.54 and seldom below 3.26. Also given: how often the same scFv was detected with the empty control strains, with their mean in brackets.
For reference, the parent read 1.86 as the reference entry and 0.88 as a member of this library.